The text below walks through data of publication PMC3046295 (Journal of autoimmunity, 2011).

The target of one assay is DR0403 (Homo sapiens, UniProt P01903+P01911, A100R/A103E/A169T/F76Y/I96L/K127E/L162R/M171V/N62H/P40V/Q125Y/R42H/S133A/S149N/S66Y/V209L/W38E). Put plainly: 16-hour direct binding assay of biotinylated reference peptide, DR0403.
A further assay has as its target DR0401 (Homo sapiens, UniProt P01903+P01911, A100K/A169T/F76Y/I96L/K127E/L162R/M171V/N62H/P40V/Q125Y/R42H/S133A/S149N/S66Y/V115G/V209L/W38E). Put plainly: 16-hour direct binding assay of biotinylated reference peptide, DR0401.

For PKYVKQNTLKLAT [HA306], the “ED50 to bind 0.05 µM DR0403” value at DR0403 is on record as greater than 15 µM. On DR0401, the “ED50 to bind 0.05 µM DR0401” value amounted to 0.035 µM.
